Test results published in ChEMBL document CHEMBL1687941 (J Med Chem, 2011).

Target: T1, Aminopeptidase N (Plasmodium falciparum FcB1/Columbia, UniProt O96935)
T1 sequence (O96935 whole entry): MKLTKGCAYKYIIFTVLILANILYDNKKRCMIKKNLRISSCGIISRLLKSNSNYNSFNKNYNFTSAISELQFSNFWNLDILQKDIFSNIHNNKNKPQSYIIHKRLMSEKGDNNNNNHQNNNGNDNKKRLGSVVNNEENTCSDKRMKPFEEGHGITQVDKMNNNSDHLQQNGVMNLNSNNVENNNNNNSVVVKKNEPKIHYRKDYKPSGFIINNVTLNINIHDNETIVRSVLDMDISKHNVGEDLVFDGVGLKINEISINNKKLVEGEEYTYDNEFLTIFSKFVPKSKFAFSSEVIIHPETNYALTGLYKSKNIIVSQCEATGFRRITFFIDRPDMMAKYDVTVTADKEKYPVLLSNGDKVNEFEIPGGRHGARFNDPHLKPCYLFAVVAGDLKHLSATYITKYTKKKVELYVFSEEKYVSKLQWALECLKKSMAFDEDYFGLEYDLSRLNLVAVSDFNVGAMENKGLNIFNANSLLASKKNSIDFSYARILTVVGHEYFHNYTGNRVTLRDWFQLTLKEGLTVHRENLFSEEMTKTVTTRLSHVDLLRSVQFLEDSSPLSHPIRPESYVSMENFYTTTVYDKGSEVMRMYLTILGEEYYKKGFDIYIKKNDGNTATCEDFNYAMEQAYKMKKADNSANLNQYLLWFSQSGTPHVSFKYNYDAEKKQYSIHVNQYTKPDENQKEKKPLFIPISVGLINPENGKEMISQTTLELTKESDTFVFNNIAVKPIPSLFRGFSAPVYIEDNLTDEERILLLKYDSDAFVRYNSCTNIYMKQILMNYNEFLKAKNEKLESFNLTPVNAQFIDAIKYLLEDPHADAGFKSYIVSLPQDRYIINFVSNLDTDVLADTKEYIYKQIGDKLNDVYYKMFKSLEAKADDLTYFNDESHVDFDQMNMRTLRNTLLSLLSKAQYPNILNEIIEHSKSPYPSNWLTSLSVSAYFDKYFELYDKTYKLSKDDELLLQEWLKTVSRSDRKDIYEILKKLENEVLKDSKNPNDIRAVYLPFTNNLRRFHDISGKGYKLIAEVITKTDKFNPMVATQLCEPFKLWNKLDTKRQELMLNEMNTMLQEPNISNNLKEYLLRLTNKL
Test: Inhibition of Plasmodium falciparum recombinant M1-aminopeptidase expressed in Escherichia coli after 40 mins uisng fluorogenic substrate L-Leucyl-7-amido-40-methylcoumarin by fluorescence spectrophotometry
In short: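 Recombinant PfA-M1 expressed in E. coli, 0.9 nM, in 50 mM HEPES pH 7.5, 100 mM NaCl, 0.1% Triton X-100. Ki by Dixon plots (1/rate vs [I]) and secondary plots vs 1/[S]. Competitive mode checked with a/v vs i plots.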

Question: For CC(C)C[C@H](NC(=O)[C@@H](O)[C@H](N)Cc1ccc(OCc2ccccc2)cc1)C(=O)O, which Ki is on record?
Answer: Its Ki is 490 nM.

Question: With COc1ccc(C[C@@H](N)[C@H](O)C(=O)N[C@@H](CC(C)C)C(=O)O)cc1 as the compound, how does the Ki read?
Answer: Its Ki is 43 nM.
